According to patent US7629169B2, “Methods for the production of platelet-derived growth factor-responsive neural precursor cells” (Stem Cell Therapeutics Corp., priority 2004, dated 2009):

Test system: PDGF-generated neurospheres
Assay: Differentiation of primary PDGF-AA-generated neurospheres, immunocytochemistry
Format: cell-based, mouse
[1] = 50 ng/ml BMP-2, 2 DIV, vs 1% FBS

B1: BMP-2: bone morphogenetic protein-2 (protein, UniProt P12643 283-396, looked up)
Bone morphogenetic protein 2: QAKHKQRKRLKSSCKRHPLYVDFSDVGWNDWIVAPPGYHAFYCHGECPFPLADHLNSTNHAIVQTLVNSVNSKIPKACCVPTELSAISMLYLDENEKVVLKNYQDMVVEGCGCR
- neurite length [1]: increased neurite length
- number of oligodendrocytes produced per clone [1]: no significant effect
- MBP-only clones (2 DIV): completely inhibited the generation of MBP-only clones
- GFAP-immunoreactive cells (astrocytes) (2 DIV differentiation): absent
- percentage of clones expressing NFM (2 DIV, vs 1% FBS): increased the percentage of clones expressing NFM
- OLIG2 / O4 expression (6 DIV PDGF-generated neurospheres differentiated 2 DIV): significantly reduced expression of OLIG2
- T3-induced oligodendrocyte differentiation (BMP-2 in the presence of T3, 2 DIV): suppressed T3-induced oligodendrocyte differentiation
